pEC50, pKi: −log10 of the molar value.
Tests used:
[1] = biological target: LXRβ ligand binding domain (LBD) (Homo sapiens (Human), UniProt P55055); test: LXR β radioligand binding assay (SPA, [3H]TO901317 competition)
Method: Poly-lysine SPA beads (50 μg) were added to each well and the total volume was adjusted to 120 μL. The plates were shaken on an orbital shaker for 20 min and then allowed to settle for 10 more minutes at rt before a brief centrifugation at 2,000 rpm for 1 min.

By UniProt entry, the sequences of proteins in these tests, tags left out. Residues count along the entry.
UniProt P55055, 222-460: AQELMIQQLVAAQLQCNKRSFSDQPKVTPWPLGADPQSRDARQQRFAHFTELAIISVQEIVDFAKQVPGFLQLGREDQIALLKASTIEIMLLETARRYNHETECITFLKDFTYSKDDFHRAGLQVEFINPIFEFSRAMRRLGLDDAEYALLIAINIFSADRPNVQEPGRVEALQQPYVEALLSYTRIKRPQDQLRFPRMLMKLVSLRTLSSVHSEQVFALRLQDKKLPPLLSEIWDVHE

LXRβ = LXRβ (Homo sapiens (Human), UniProt P55055); test: LXR luciferase transcriptional reporter gene assay, Gal4-LXRβ LBD in HEK293 cells; format: cell-based; conditions: pG5-Luc luciferase reporter, 16 h, read-out: LXRβ CELL EC50

SMILES	pKi [1]	pEC50 (LXRβ)
CC(C)[C@H]1c2cc3ccc(S(C)(=O)=O)cc3n2CCN1c1nccc(C(F)(F)F)n1 (single isomer, unassigned) [Compound E3b, 1-isopropyl-7-(methylsulfonyl)-2-(4-(trifluoromethyl)pyrimidin-2-yl)-1,2,3,4-tetrahydropyrazino[1,2-a]indole]	5.76	< 4.70
CC(C)[C@@H]1c2cc3ccc(S(C)(=O)=O)cc3n2CCN1c1nccc(C(F)(F)F)n1 (single isomer, unassigned) [Compound E3a, 1-isopropyl-7-(methylsulfonyl)-2-(4-(trifluoromethyl)pyrimidin-2-yl)-1,2,3,4-tetrahydropyrazino[1,2-a]indole]	7.57	7.06
